T1: Human hexokinase I (HK‐I), recombinant (human, UniProt P19367 1-917, fluorescently labeled using a NanoTemper BLUE protein‐labeling kit (in the MST))
T1 chain: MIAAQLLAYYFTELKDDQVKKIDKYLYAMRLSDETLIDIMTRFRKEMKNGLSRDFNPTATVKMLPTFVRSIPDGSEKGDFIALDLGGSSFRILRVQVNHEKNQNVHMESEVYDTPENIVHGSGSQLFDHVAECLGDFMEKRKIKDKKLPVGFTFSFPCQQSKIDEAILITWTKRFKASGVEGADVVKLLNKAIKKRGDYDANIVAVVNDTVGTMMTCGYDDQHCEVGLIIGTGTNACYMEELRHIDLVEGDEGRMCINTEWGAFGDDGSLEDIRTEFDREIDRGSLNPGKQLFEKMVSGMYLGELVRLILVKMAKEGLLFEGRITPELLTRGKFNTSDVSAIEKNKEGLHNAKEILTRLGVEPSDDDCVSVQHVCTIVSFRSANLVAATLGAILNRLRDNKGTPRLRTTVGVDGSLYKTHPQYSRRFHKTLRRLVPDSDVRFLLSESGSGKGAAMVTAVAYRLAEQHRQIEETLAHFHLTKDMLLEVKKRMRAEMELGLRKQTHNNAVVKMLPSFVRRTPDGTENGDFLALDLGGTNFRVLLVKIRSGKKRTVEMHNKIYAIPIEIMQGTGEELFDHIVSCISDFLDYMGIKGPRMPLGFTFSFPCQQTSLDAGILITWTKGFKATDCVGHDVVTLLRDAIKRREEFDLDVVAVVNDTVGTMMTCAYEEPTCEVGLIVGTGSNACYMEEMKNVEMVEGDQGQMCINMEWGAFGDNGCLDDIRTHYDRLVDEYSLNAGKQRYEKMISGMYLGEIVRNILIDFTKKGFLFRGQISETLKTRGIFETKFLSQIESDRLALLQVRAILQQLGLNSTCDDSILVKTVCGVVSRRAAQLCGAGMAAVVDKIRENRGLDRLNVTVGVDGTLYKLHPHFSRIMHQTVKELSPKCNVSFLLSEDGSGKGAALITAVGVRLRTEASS


Tests used:
[1] = test system: U‐87MG; type: cell-based; conditions: 6 h
Method: Leukemia cells, U‐937, MEC‐1 cells (4 × 10^5 or 8 × 10^5 cells/sample, respectively), as well as other leukemia or suspension cell lines, were incubated in 200 μL serum‐free medium with various concentrations of the peptide for 90 min at 23–25 °C, collected by centrifugation (500 g, 5 min), washed with PBS, and analyzed for cell death. Adherent cells (6 × 10^5 mL^−1 at 70–80% confluence) were incubated with the peptide of interest in 500 μL serum‐free recommended culture medium for 3–6 h at 37 °C and 5% CO2. The cells were then trypsinized, centrifuged (1500 g, 5 min), washed with PBS, and analyzed for the desired activity. Following peptide treatment, cells were subjected to cell death analysis. Propidium iodide (PI) staining was performed by addition of PI (6.25 μg·mL^−1) to the cells and immediate analysis by the EC800 Flow cytometer Analyzer–Eclipse or the FACS caliber (Becton‐Dickinson, San Jose, CA, USA) and BD […] PRO software (BD Biosciences, San Jose, CA, USA).
Forty‐one cancerous and five noncancerous cell lines were used in this study to examine the cell‐killing activity of the VDAC1‐based peptides Antp‐LP4, Tf‐LP4, Tf‐D‐LP4, R‐Tf‐D‐LP4, N‐Ter‐Antp, and others (Figs 1, 2, 3 and Tables 1, 2, 3). For each line, cells were incubated with different peptide concentrations, and cell death was determined by PI staining and FACS analysis (Figs 1, 2, 3). In addition, for each cell line, the concentration of the peptide inducing 50% cell death (EC50) was determined (Tables 1, 2, 3).

[2] = target: T1, Human hexokinase I (HK‐I), recombinant; assay: MST

Molecule	EC50 [1]	Kd [2]
CC[C@@H](C)[C@@H](NC(=O)[C@@H](CCCCN)NC(=O)[C@H](NC(=O)[C@@H](CCC(N)=O)NC(=O)[C@@H](CCCNC(=N)N)NC(=O)[C@@H](CC(C)C)NC(=O)CNC(=O)[C@@H](Cc1ccccc1)NC(=O)CNC(=O)[C@@H](Cc1ccc(O)cc1)NC(=O)CNC(=O)[C@@H](CCCCN)NC(=O)[C@H](NC(=O)[C@H](N)Cc1ccccc1)[C@H](C)O)[C@H](C)CC)C(=O)N[C@H](Cc1c[nH]c2ccccc12)C(=O)N[C@H](Cc1ccccc1)C(=O)N[C@H](CCC(N)=O)C(=O)N[C@H](CC(N)=O)C(=O)N[C@H](CCCNC(=N)N)C(=O)N[C@H](CCCNC(=N)N)C(=O)N[C@H](CCSC)C(=O)N[C@H](CCCCN)C(=O)N[C@H](Cc1c[nH]c2ccccc12)C(=O)N[C@H](CCCCN)C(=O)N[C@H](CCCCN)C(=O)O [D‐∆1‐18N‐Ter‐Antp]	6.7 ± 1.4 µM	–
CC[C@@H](C)[C@@H](NC(=O)[C@@H](CCCCN)NC(=O)[C@H](NC(=O)[C@@H](CCC(N)=O)NC(=O)[C@@H](CCCNC(=N)N)NC(=O)[C@@H](CC(C)C)NC(=O)CNC(=O)[C@@H](Cc1ccccc1)NC(=O)CNC(=O)[C@@H](Cc1ccc(O)cc1)NC(=O)CNC(=O)[C@@H](CCCCN)NC(=O)[C@H](NC(=O)[C@@H](Cc1ccccc1)NC(=O)[C@H](N)C(C)C)[C@H](C)O)[C@H](C)CC)C(=O)N[C@H](Cc1c[nH]c2ccccc12)C(=O)N[C@H](Cc1ccccc1)C(=O)N[C@H](CCC(N)=O)C(=O)N[C@H](CC(N)=O)C(=O)N[C@H](CCCNC(=N)N)C(=O)N[C@H](CCCNC(=N)N)C(=O)N[C@H](CCSC)C(=O)N[C@H](CCCCN)C(=O)N[C@H](Cc1c[nH]c2ccccc12)C(=O)N[C@H](CCCCN)C(=O)N[C@H](CCCCN)C(=O)O [D‐∆(1‐16)N‐Ter‐Antp]	7.7 µM	–
CC[C@H](C)[C@H](NC(=O)[C@H](CCCCN)NC(=O)[C@@H](NC(=O)[C@H](CCC(N)=O)NC(=O)[C@H](CCCNC(=N)N)NC(=O)[C@H](CC(C)C)NC(=O)CNC(=O)[C@H](Cc1ccccc1)NC(=O)CNC(=O)[C@H](Cc1ccc(O)cc1)NC(=O)CNC(=O)[C@H](CCCCN)NC(=O)[C@@H](NC(=O)[C@H](Cc1ccccc1)NC(=O)[C@@H](NC(=O)[C@H](CC(=O)O)NC(=O)[C@H](CCCNC(=N)N)NC(=O)[C@H](C)NC(=O)[C@H](CO)NC(=O)[C@H](CCCCN)NC(=O)CNC(=O)[C@H](CC(C)C)NC(=O)[C@H](CC(=O)O)NC(=O)[C@H](C)NC(=O)[C@H](Cc1ccc(O)cc1)NC(=O)[C@@H](NC(=O)[C@@H]1CCCN1C(=O)[C@@H]1CCCN1C(=O)[C@@H](NC(=O)[C@H](C)NC(=O)[C@@H](N)CCSC)C(C)C)[C@@H](C)O)C(C)C)[C@@H](C)O)[C@@H](C)CC)C(=O)N[C@@H](Cc1c[nH]c2ccccc12)C(=O)N[C@@H](Cc1ccccc1)C(=O)N[C@@H](CCC(N)=O)C(=O)N[C@@H](CC(N)=O)C(=O)N[C@@H](CCCNC(=N)N)C(=O)N[C@@H](CCCNC(=N)N)C(=O)N[C@@H](CCSC)C(=O)N[C@@H](CCCCN)C(=O)N[C@@H](Cc1c[nH]c2ccccc12)C(=O)N[C@@H](CCCCN)C(=O)N[C@@H](CCCCN)C(=O)O [N‐Ter‐Antp]	4.5 ± 1.8 µM	–
CC[C@H](C)[C@H](NC(=O)[C@H](CCCCN)NC(=O)[C@@H](NC(=O)[C@H](CCC(N)=O)NC(=O)[C@H](CCCNC(=N)N)NC(=O)[C@H](CCCCN)NC(=O)[C@@H](NC(=O)[C@H](Cc1ccccc1)NC(=O)[C@@H](NC(=O)[C@H](CC(=O)O)NC(=O)[C@H](CCCNC(=N)N)NC(=O)[C@H](C)NC(=O)[C@H](CO)NC(=O)[C@H](CCCCN)NC(=O)CNC(=O)[C@H](CC(C)C)NC(=O)[C@H](CC(=O)O)NC(=O)[C@H](C)NC(=O)[C@H](Cc1ccc(O)cc1)NC(=O)[C@@H](NC(=O)[C@@H]1CCCN1C(=O)[C@@H]1CCCN1C(=O)[C@@H](NC(=O)[C@H](C)NC(=O)[C@@H](N)CCSC)C(C)C)[C@@H](C)O)C(C)C)[C@@H](C)O)[C@@H](C)CC)C(=O)N[C@@H](Cc1c[nH]c2ccccc12)C(=O)N[C@@H](Cc1ccccc1)C(=O)N[C@@H](CCC(N)=O)C(=O)N[C@@H](CC(N)=O)C(=O)N[C@@H](CCCNC(=N)N)C(=O)N[C@@H](CCCNC(=N)N)C(=O)N[C@@H](CCSC)C(=O)N[C@@H](CCCCN)C(=O)N[C@@H](Cc1c[nH]c2ccccc12)C(=O)N[C@@H](CCCCN)C(=O)N[C@@H](CCCCN)C(=O)O [N‐Ter∆21‐26‐Antp]	> 15 µM	–
CC[C@H](C)[C@H](NC(=O)[C@H](C)NC(=O)[C@H](Cc1c[nH]cn1)NC(=O)[C@H](CC(C)C)NC(=O)CNC(=O)[C@H](Cc1ccccc1)NC(=O)CNC(=O)[C@H](Cc1ccc(O)cc1)NC(=O)CNC(=O)[C@H](CCCCN)NC(=O)[C@@H](NC(=O)[C@H](Cc1ccccc1)NC(=O)[C@@H](NC(=O)[C@H](CC(=O)O)NC(=O)[C@@H](N)CCCNC(=N)N)C(C)C)[C@@H](C)O)C(=O)N[C@@H](Cc1ccc(O)cc1)C(=O)N1CCC[C@H]1C(=O)N[C@@H](CCCNC(=N)N)C(=O)N[C@@H](Cc1c[nH]cn1)C(=O)O [Tf‐∆(1‐14)N‐Ter]	> 15 µM	–
CC[C@H](C)[C@H](NC(=O)[C@H](CCCCN)NC(=O)[C@@H](NC(=O)[C@H](CCC(N)=O)NC(=O)[C@H](CCCNC(=N)N)NC(=O)[C@H](CCCCN)NC(=O)[C@@H](NC(=O)[C@H](Cc1ccccc1)NC(=O)[C@@H](NC(=O)[C@H](CC(=O)O)NC(=O)[C@H](CCCNC(=N)N)NC(=O)[C@H](C)NC(=O)[C@H](CO)NC(=O)[C@H](CCCCN)NC(=O)CNC(=O)[C@H](CC(C)C)NC(=O)[C@H](CC(=O)O)NC(=O)[C@H](C)NC(=O)[C@H](Cc1ccc(O)cc1)NC(=O)[C@@H](N)[C@@H](C)O)C(C)C)[C@@H](C)O)[C@@H](C)CC)C(=O)N[C@@H](Cc1c[nH]c2ccccc12)C(=O)N[C@@H](Cc1ccccc1)C(=O)N[C@@H](CCC(N)=O)C(=O)N[C@@H](CC(N)=O)C(=O)N[C@@H](CCCNC(=N)N)C(=O)N[C@@H](CCCNC(=N)N)C(=O)N[C@@H](CCSC)C(=O)N[C@@H](CCCCN)C(=O)N[C@@H](Cc1c[nH]c2ccccc12)C(=O)N[C@@H](CCCCN)C(=O)N[C@@H](CCCCN)C(=O)O [∆(1‐4)N‐Ter∆(21‐26)‐Antp]	> 15 µM	–
CC[C@H](C)[C@H](NC(=O)[C@H](CCCCN)NC(=O)[C@@H](NC(=O)[C@H](CCC(N)=O)NC(=O)[C@H](CCCNC(=N)N)NC(=O)[C@H](CCCCN)NC(=O)[C@@H](NC(=O)[C@H](Cc1ccccc1)NC(=O)[C@@H](NC(=O)[C@H](CC(=O)O)NC(=O)[C@H](CCCNC(=N)N)NC(=O)[C@H](C)NC(=O)[C@H](CO)NC(=O)[C@H](CCCCN)NC(=O)CNC(=O)[C@@H](N)CC(C)C)C(C)C)[C@@H](C)O)[C@@H](C)CC)C(=O)N[C@@H](Cc1c[nH]c2ccccc12)C(=O)N[C@@H](Cc1ccccc1)C(=O)N[C@@H](CCC(N)=O)C(=O)N[C@@H](CC(N)=O)C(=O)N[C@@H](CCCNC(=N)N)C(=O)N[C@@H](CCCNC(=N)N)C(=O)N[C@@H](CCSC)C(=O)N[C@@H](CCCCN)C(=O)N[C@@H](Cc1c[nH]c2ccccc12)C(=O)N[C@@H](CCCCN)C(=O)N[C@@H](CCCCN)C(=O)O [∆(1‐9)N‐Ter∆(21‐26)‐Antp]	> 15 µM	–
CC[C@H](C)[C@H](NC(=O)[C@H](C)NC(=O)[C@@H](N)Cc1c[nH]cn1)C(=O)N[C@@H](Cc1ccc(O)cc1)C(=O)N1CCC[C@H]1C(=O)N[C@@H](CCCNC(=N)N)C(=O)N[C@@H](Cc1c[nH]cn1)C(=O)N[C@@H](CCCNC(=N)N)C(=O)N[C@@H](CC(=O)O)C(=O)N[C@H](C(=O)N[C@@H](Cc1ccccc1)C(=O)N[C@H](C(=O)N[C@@H](CCCCN)C(=O)NCC(=O)N[C@@H](Cc1ccc(O)cc1)C(=O)NCC(=O)N[C@@H](Cc1ccccc1)C(=O)NCC(=O)N[C@@H](CC(C)C)C(=O)O)[C@@H](C)O)C(C)C [∆(1‐14)N‐Ter‐Tf]	> 15 µM	–
KWTWKNSNGATWALNVATELKKEWTWSHRPYIAH (retro‐inverso peptide with amino acids in D‐configuration; which residues are D is marked in bold in the paper's printed sequence) [Retro‐Tf‐D‐LP4]	–	15 µM
RQIKIWFQNRRMKWKKSWTWEKKLETAVNLAWTAGNSNKWTWK (amino acids added to form a loop‐shaped tryptophan zipper (N‐terminal arm); amino acids added to form a loop‐shaped tryptophan zipper (C‐terminal arm); 43 residues as printed; source: synthetic peptide (GL Biochem, > 85% purity)) [Antp‐LP4]	–	9.5 µM

From PMC6026870, “Selective induction of cancer cell death by VDAC1‐based peptides and their potential use in cancer therapy” (Molecular Oncology, 2018)
